ChEMBL document CHEMBL1781915, “Potential virtual lead identification in the discovery of renin inhibitors: application of ligand and structure-based pharmacophore modeling approaches” (Eur J Med Chem, 2011)

Protein sequences, listed by entry. Tags and fused reporters are not part of them. Lines headed by an entry give the natural chain unless they say otherwise; changes in a name come on top.
UniProt P00797: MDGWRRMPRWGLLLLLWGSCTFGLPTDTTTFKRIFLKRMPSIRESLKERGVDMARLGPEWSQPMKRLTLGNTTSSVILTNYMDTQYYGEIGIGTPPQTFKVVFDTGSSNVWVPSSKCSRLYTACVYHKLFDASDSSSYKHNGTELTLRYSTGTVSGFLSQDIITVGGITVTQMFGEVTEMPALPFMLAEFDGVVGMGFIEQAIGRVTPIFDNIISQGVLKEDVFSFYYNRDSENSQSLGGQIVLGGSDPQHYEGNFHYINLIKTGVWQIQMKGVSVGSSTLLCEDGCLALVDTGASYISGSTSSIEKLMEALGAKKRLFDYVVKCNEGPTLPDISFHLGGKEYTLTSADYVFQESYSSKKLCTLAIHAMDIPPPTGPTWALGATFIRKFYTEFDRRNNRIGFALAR

Biological target: Renin (Homo sapiens, UniProt P00797)

Structure (SMILES)	IC50
CNCC(CC1CCCCC1)NC(=O)N1CCCC(C(O)(CCCCOC)c2cccc(Cl)c2)C1 (configuration not stated)	0.47 nM
CCCCNC(=O)C(C)CC(O)C(N)CC(C)COC(=O)c1cn(Cc2ccccc2)c2ccccc12 (configuration not stated)	3 nM
